These are literature values, as cited in patent US20050054726A1, “Vaccine” (priority 2001, published 2005).

The target in this series is iNOS (Homo sapiens, UniProt P35228). The settings on record: category per Alderton et al., Biochem J. (2001) 357, 593-615; cited from earlier work.

For `CNC(=N)NCCC[C@H](N)C(=O)O` [L-NMMA], the “selectivity category of iNOS inhibitor” value is “non-selective (Inhibitors with less than 10-fold selectivity for one particular NOS-type)”.
